Data as given in ChEMBL document CHEMBL3882391, “Substituted tricyclic compounds as protein kinase inhibitors” (2008).

Target: T1, Aurora kinase A (Homo sapiens) (UniProt O14965)
T1 sequence (whole entry): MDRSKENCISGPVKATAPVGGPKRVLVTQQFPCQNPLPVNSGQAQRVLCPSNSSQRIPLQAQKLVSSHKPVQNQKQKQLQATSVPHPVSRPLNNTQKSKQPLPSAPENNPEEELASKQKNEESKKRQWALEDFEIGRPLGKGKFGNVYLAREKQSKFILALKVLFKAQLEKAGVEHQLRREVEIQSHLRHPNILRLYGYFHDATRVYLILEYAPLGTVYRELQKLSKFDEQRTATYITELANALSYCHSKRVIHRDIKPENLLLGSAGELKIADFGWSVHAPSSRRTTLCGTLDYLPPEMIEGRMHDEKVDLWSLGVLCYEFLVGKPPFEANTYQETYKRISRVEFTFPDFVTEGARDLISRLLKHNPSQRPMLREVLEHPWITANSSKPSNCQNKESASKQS
Assay: Inhibition of human recombinant aurora-2 kinase expressed in Sf9 cells at 20 uM using kemptide as substrate by kinase-Glo luciferase assay

- inhibition: Active
SMILES: COc1cc2[nH]c3ncnc(N4CCN(C(=S)Nc5ccc(S(=O)(=O)Nc6ncccn6)cc5)CC4)c3c2cc1OC

Active and inactive are the calls of the source. The calls are words filed in the database; no cut-off is given here.
